# Measured values from BindingDB's records for doi:10.7270/Q2JQ0ZDS (Sanford-Burnham Center for Chemical Genomics, 2009).
# Sequences of proteins named here, by UniProt entry; tags and fusion partners are left off. A change or cut given only in a name is not applied to a line headed by its entry.
# UniProt P09923: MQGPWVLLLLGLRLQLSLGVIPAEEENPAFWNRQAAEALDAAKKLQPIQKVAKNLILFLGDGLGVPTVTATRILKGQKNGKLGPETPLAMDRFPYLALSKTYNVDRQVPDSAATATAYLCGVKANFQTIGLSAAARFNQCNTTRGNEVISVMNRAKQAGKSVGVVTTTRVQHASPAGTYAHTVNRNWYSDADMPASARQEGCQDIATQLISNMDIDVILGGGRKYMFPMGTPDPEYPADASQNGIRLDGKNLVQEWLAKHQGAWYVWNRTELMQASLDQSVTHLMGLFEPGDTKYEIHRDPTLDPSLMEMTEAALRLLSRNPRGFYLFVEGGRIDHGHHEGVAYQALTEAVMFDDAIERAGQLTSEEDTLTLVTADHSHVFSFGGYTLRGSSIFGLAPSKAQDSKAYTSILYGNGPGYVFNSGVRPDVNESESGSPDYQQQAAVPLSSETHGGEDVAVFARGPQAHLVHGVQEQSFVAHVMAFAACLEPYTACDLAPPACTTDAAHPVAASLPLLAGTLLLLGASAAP
# Counter-ions that a name gives are not always drawn.
# Molecular target: Intestinal-type alkaline phosphatase (Homo sapiens, UniProt P09923)
# Assay: human IAP enzyme inhibitors, dose response, biochemical, luminescence (AID 1017)
compound,measurement,value
"Cc1nccn1CC(=O)c1ccc(O)c(O)c1 [1-(3,4-dihydroxyphenyl)-2-(2-methyl-1-imidazolyl)ethanone;hydrochloride]",IC50,64.6 µM
